Consider one molecule from patent publication US20260078119A1, “DEGRADER COMPOUNDS AND USES THEREOF” (Bristol-Myers Squibb Company, priority 2024, published 2026).

Sequences of proteins named here, by UniProt entry; tags and fusion partners are left off.
UniProt Q05397, whole entry: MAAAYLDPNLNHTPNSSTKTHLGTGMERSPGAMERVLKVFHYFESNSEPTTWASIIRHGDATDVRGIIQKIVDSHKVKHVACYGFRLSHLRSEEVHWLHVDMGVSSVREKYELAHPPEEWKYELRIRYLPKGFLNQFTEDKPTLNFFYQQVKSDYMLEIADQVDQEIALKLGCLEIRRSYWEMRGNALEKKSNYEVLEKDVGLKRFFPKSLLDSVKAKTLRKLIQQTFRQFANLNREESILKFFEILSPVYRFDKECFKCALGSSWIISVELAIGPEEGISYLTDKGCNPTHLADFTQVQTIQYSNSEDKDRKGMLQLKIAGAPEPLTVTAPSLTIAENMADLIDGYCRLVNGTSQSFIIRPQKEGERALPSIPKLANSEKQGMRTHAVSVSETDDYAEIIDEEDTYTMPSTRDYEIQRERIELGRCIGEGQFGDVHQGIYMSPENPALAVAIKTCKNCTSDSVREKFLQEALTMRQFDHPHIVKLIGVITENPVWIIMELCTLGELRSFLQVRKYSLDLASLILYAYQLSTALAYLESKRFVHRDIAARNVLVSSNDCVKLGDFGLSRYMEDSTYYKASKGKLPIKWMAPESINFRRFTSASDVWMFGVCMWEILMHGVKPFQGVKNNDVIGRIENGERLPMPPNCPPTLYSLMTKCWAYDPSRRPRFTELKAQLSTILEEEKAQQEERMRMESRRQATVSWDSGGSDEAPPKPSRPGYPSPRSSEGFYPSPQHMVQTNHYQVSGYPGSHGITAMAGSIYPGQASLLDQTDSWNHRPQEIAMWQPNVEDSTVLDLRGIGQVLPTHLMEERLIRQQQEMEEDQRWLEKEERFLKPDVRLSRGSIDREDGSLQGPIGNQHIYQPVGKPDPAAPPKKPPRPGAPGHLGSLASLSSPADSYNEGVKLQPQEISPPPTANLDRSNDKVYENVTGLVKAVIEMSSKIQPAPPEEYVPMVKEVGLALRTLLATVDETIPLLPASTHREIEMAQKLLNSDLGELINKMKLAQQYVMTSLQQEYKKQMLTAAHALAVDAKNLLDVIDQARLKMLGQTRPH

In one experiment the test system is CAL-51 cells. The experiment is described as follows: CAL-51 Cell Proliferation Assay. An excerpt: CAL-51 cells were obtained from Bristol Myers Squibb internal cell banks (originally sourced from DSMZ-German Collection of Microorganisms and Cell Cultures GmbH, Germany) and cultured in RPMI complete media (RPMI-1640, 10% Fetal Bovine serum, 1× Antibiotic-Antimycotic, and 1× Non-Essential Amino Acids). Compounds were dispensed into 384-well plates using an acoustic dispenser (Beckman Coulter Life Sciences, Carlsbad, CA) in duplicate with 14 compounds on each plate. For each compound, a 10-point dose response was printed at 4-fold dilutions starting at 10 μM. The DMSO concentration was kept constant for a final assay concentration of 0.1% per well assuming 50 uL final media volume. Compound plates were sealed and frozen at −20° C. until use.
For each assay batch, compound plates were thawed and allowed to reach room temperature, and cells were seeded at 350 cells per well in 50 μl complete RPMI media. After 120 hours of incubation at 37° C. and 5% CO2, cells were lysed by addition of 25 μL of Cell-Titer-Glo Reagent (Promega Corporation, Madison, WI), as per manufacturer's instructions, protected from light, shaken for 20 minutes, and total luminescence read by a CLARIOstar Plus plate reader (BMG LabTech, Cary, NC). Total luminescence signal is linearly correlated with cell number remaining in the well. […]

Another experiment has as its target FAK (Homo sapiens, UniProt Q05397). The experiment is described as follows: FAK-HiBiT Degradation Assay. The source says:
To generate JHH-4-FAK-HiBiT cells for the FAK degradation assay, JHH-4 cells (Japanese Collection of Research Biosources Cell Bank, Japan) were transfected with ribonucleoprotein reagents to introduce, by CRISPR-Cas9 editing, the homozygous knock-in of a HiBiT tag (Promega Corporation, Madison, WI) to the C-terminus of the FAK gene in its natural genomic locus. Clonal cell populations were established by expanding single cells after CRISPR-Cas9 editing, with a clonal cell line named JHH-4-FAK-HiBiT clone d01 confirmed by next generation DNA sequencing to contain the expected HiBiT edited FAK gene and was selected for FAK degradation screening. Cells were selected and maintained in complete DMEM media (DMEM, 10% Heat Inactivated FBS, and Non-Essential Amino Acids at 37° C. and 5% CO2). Cells were passaged every 3-4 days by reseeding 0.5×10^6 cells in a T75 flask.
Cells were dispensed into 384-well white plates (Corning #3570, NY) that were pre-spotted with compounds using an acoustic dispenser (Echo acoustic transfer system, Beckman Coulter Life Sciences, Carlsbad, CA) as a 10-point dose response curve with a 3-fold dilution starting at 1 μM and including a DMSO control. Twenty-five microliters of media containing 2000 JHH-4-FAK-HiBiT Clone d01 cells was dispensed per well. […] After 10 minutes, luminescence was read on a PHERAstar luminometer (BMG Labtech, Cary, NC). […]
For orientation: The HiBiT peptide binds its large partner to form an active luciferase.

For `O=C1CC[C@H](N2Cc3cc(Cn4ncc5c(-c6ncc(C(F)(F)F)cc6F)cc(N6CC[C@H](O)C6)nc54)ccc3C2=O)C(=O)N1`, in the experiment on CAL-51 cells (minimal percent of DMSO control observed in the concentrations tested (Ymin-obs), 120 hours), the “CAL-51 Prolif Ymin” value worked out at 79.34. In addition, the EC50 worked out at 2040 nM in the experiment with CAL-51 cells (read-out: CAL-51 Prolif EC50, 120 hours incubation, 10-point dose response, 4-fold dilutions starting at 10 μM, Cell-Titer-Glo) and 35 nM at FAK (read-out: FAK HiBiT EC50, JHH-4-FAK-HiBiT clone d01 cells, two hours incubation, 10-point dose response, 3-fold dilution starting at 1 μM, Nano-Glo HiBiT luminescence). For the same molecule, the “FAK HiBiT Ymin” value at FAK (lower limit of the four parameter fit (value A), Ymax derived using DMSO control, JHH-4-FAK-HiBiT cells, two hours) is 62.22.
